Measurements reported in ChEMBL document CHEMBL5634145, “Discovery of novel amidobenzimidazole derivatives as orally available small molecule modulators of stimulator of interferon genes for cancer immunotherapy” (Eur J Med Chem, 2023).

Tests used:
[1] = target: T1, Stimulator of interferon genes protein (Mus musculus) (UniProt Q3TBT3); experiment: Competitive binding affinity to 6xHis-tagged wild type mouse STING in presence of d2-labeled STING ligand by HTRF method; conditions: filed as agonist, dose 0.01-100 µM
T1 sequence (whole entry): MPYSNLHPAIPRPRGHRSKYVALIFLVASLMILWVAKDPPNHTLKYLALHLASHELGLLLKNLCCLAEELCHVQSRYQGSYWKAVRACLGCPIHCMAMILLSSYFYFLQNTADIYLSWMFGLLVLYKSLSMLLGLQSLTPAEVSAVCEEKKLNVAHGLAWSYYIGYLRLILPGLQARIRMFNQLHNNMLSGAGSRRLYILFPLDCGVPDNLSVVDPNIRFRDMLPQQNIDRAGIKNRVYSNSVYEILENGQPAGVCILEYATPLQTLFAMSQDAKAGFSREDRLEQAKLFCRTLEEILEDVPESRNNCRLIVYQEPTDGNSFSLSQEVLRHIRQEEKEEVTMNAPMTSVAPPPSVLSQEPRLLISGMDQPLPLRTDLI

[2] = target: T1, Stimulator of interferon genes protein (Mus musculus); experiment: Agonist activity at STING in mouse RAW264.7 cells assessed as increase in IP-10 level incubated for 24 hrs by ELISA; type: cell-based; conditions: filed as agonist, dose 12.5-80 µM
[3] = target: T1, Stimulator of interferon genes protein (Mus musculus); experiment: Agonist activity at STING in mouse RAW264.7 cells assessed as increase in IFN-beta level incubated for 24 hrs by ELISA; type: cell-based; conditions: filed as agonist, dose 12.5-80 µM

Measured: Activity

Cc1ncccc1C(=O)Nc1nc2cc(C(N)=O)ccc2n1CCCCNC(=O)OC(C)(C)C
active: [1] Dose-Dependent Effect | [2] Dose-Dependent Effect | [3] Dose-Dependent Effect
